This passage reports DC50 and IC50 results from US20230167118A1, “DEGRADATION OF BRUTON'S TYROSINE KINASE (BTK) BY CONJUGATION OF BTK INIDBITORS WITH E3 LIGASE LIGAND AND METHODS OF USE” (BEIGENE, LTD., priority 2020, published 2023).

Amino acid sequences for entries named in this document (tags omitted).
UniProt Q06187, whole entry: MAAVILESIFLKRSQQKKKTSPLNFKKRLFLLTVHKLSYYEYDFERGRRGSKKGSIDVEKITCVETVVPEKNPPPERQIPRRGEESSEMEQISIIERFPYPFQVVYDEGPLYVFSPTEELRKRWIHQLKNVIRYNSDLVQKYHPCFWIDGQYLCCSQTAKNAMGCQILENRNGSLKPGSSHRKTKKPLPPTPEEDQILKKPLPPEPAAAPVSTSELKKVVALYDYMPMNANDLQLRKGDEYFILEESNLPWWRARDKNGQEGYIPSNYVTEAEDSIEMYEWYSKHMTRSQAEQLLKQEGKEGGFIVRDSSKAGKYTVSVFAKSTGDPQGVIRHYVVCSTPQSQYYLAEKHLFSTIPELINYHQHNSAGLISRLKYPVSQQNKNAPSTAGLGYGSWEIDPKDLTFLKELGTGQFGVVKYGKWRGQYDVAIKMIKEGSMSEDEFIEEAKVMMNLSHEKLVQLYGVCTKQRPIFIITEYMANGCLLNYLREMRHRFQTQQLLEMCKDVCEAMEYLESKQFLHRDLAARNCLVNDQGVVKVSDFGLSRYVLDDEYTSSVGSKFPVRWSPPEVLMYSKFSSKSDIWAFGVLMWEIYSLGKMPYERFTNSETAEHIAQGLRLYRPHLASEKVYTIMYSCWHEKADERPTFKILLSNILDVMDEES

One experiment has as its target BTK (Homo sapiens, UniProt Q06187). Briefly: Cell Degradation: BTK degradation in TMD-8 cells, HTRF assay. The settings on record: 6 h treatment, IC50 (DC50) of BTK degradation. A general note: Time-resolved FRET reads energy transfer from a long-lived donor to a nearby acceptor.
For the next experiment, the system named is HEK-293 cells. Briefly: HEK-293 Cytotoxicity Assay (CellTiter-Glo). The settings on record: 72 h incubation, CellTiter-Glo luminescence. As to the method: HEK-293 Cytotoxicity Assay
HEK-293 cells are treated with compounds diluted in 0.2% DMSO, dilution is done according to the following protocol: (1) make 500× stock solution in DMSO from 5 mM by 4-fold dilution, total 8 doses were included; (2) make 2× solution in cell culture medium by transferring 0.5 ul 500× stock solution into 125 ul medium; (3) 50 ul of 2× solution is added to cells and incubate for 72 h.
Add 25 μl of the CellTiter-Glo®Reagent [I (Promega)—Cat No. G7572] to each well in the 96-well plate. Mix contents for 2 minutes on an orbital shaker to induce cell lysis. Allow the plate to incubate at room temperature for 10 minutes to stabilize luminescent signal. Record luminescence on BMG PheraStar with luminescence protocol.
The IC50 value of a compound can be obtained by fitting the following equation. Y=Bottom+(TOP−Bottom)/(1+((IC50/X)^hillslope)) Wherein, X and Y are known values, and IC50, Hillslope, Top and Bottom are the parameters obtained by fitting with software. Y is the inhibition percentage (calculated from the equation), X is the concentration of the compound; IC50 is the concentration of the compound when the 50% inhibition is reached. The smaller the IC50 value is, the stronger the inhibitory ability of the compound is. […]
For orientation: In ATP-based viability assays light output follows the ATP content of the culture.

Molecules are shown by their SMILES. pIC50: −log10 of the molar value. Bounds are passed on as bounds.

With `C[C@@H](NC(=O)c1nc(C(C)(C)C)no1)C1CCN(c2ncnc3[nH]c(-c4ccc(N5CCN(CC6CCN(c7ccc(N8CCC(=O)NC8=O)cc7)CC6)CC5)nc4)cc23)CC1`, at BTK, the DC50 (commonly the midpoint of the concentration-degradation curve) came to 0.4 nM. Also, in the experiment on HEK-293 cells, the negative-log IC50 (pIC50) (commonly −log10 of the IC50, conventionally taken in molar units) was below 5.00.
